Data from article PMC11487425 (RSC Medicinal Chemistry, 2024).

Settings: rat liver microsomes

SMILES | microsomal stability in words
COc1ccc2c(c1)-c1c(sc3ccc(O)cc13)C2=O [4j, 2-Hydroxy-9-methoxy-6H-benzo[b]indeno[1,2-d]thiophen-6-one] | rapidly degraded to 50% of its initial amount then plateaued for the rest of the assay
COc1cccc2c1C(=O)c1sc3ccc(O)cc3c1-2 [4l, 2-Hydroxy-7-methoxy-6H-benzo[b]indeno[1,2-d]thiophen-6-one] | rapidly metabolized
